Test results: PubChem BioAssay AID1229 (Sanford-Burnham Center for Chemical Genomics, 2008)
The entries are a selection whose mix differs from that of the whole data set. Some tests of the compounds listed are not included; inactive here does not mean inactive elsewhere. Activity calls are given as the source filed them.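 Rule for the calls: active = diaphorase activity raised at least twofold by the compound at 20 µM; inactive = activation factor below 2.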

assay: compounds boosting diaphorase resazurin reduction – biochemical, uHTS, resorufin fluorescence, counter-screen for diaphorase-coupled primary assays, primary screen (AID 1229); details: Diaphorase/resazurin coupled assay, 16 min, at 20 µM; stronger effect = higher value, 1 = vehicle wells, 0 = NADH-free wells
Outline: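 test system = bacterial diaphorase enzyme (C. kluyveri) | quantity = enzyme 0.07 U/mL final | reagent = NADH substrate 0.114 mM plus resazurin dye 0.1 mM, final | incubation = 16 min enzyme reaction, ambient temperature | buffer or medium = HEPES pH 7.4 buffer with MgCl2 and Tween 20 | signal = fluorescence of resorufin, 544 nm excitation, 590 nm emission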

Q: With CN(C)c1cccc(C(=O)NCC2(N(C)C)CCCCC2)c1 as the compound, how does the activation factor read?
A: Its activation factor is inactive: 0.8.

Q: Which activation factor does the source give for O=C(OC1CN2CCC1CC2)C(CO)(c1ccccc1)c1ccccc1 (centres undefined) here?
A: The activation factor was “inactive”.

Q: With COc1cccc(C(=O)NCC2(N3CCCCC3)CCCCC2)c1 as the compound, how does the activation factor read?
A: The activation factor was “inactive”.

Q: With C=CCN1CCN(CCOC(=O)C(O)(c2ccccc2)c2ccccc2)CC1 as the compound, how does the activation factor read?
A: Its activation factor is “inactive”.

Q: For CCN1CCCC(OC(=O)C2(O)c3ccccc3C=Cc3ccccc32)C1 (centres undefined), which activation factor is on record?
A: The activation factor was inactive: 1.

Q: With Cc1ccccc1C(=O)NCC1(N2CCCCC2)CCCCC1 as the compound, how does the activation factor read?
A: Its activation factor is inactive: 1.

Q: For CN(C)C1CCCC1OC(=O)C(O)(c1ccccc1)c1ccccc1 (centres undefined), which activation factor is on record?
A: The activation factor was inactive: 1.

Q: For CC(C)N1C(=O)CC2(CCN(CCOC(=O)C(O)(c3ccccc3)c3ccccc3)CC2)C1=O, which activation factor is on record?
A: Its activation factor is inactive: 1.

Q: With O=C(NCC1(N2CCCCC2)CCCCC1)c1cc([N+](=O)[O-])ccc1Cl as the compound, how does the activation factor read?
A: The activation factor was inactive: 1.1.
